A short description of the data set: Body weight, adipose tissue mass and tolerability in E0771 tumor-bearing high-fat diet mice. The note with it: FIG. 9; compared to vehicle group; Compound 1 6 or 12 mg/kg SC Q4D, eribulin mesylate 1 or 2 mg/kg IP.

Structures can show the parent of a compound that is named as a salt.

With `C=C1C[C@@H]2CC[C@@]34C[C@H]5O[C@H]6[C@@H](O3)[C@H]3O[C@H](CC[C@@H]3O[C@H]6[C@H]5O4)CC(=O)C[C@@H]3[C@@H](OC)[C@@H](C[C@H](O)CN)O[C@H]3C[C@H]3O[C@@H](CC[C@@H]1O2)C[C@@H](C)C3=C` [eribulin mesylate], the “Weight loss (body weight change over the study)” value is “increased as compared to the vehicle group”.

For the origin of these results see patent US20260014194A1, “COMBINATIONS COMPRISING METAP2 INHIBITORS FOR THE TREATMENT OF CANCER” (SynDevRx, Inc., priority 2022, published 2026).
